Data published in patent publication US20200255519A1 (University of California, published 2020).

The chains behind the UniProt entries cited, without tags or fusion partners. Residues count along the entry.
UniProt Q07817, 2-215: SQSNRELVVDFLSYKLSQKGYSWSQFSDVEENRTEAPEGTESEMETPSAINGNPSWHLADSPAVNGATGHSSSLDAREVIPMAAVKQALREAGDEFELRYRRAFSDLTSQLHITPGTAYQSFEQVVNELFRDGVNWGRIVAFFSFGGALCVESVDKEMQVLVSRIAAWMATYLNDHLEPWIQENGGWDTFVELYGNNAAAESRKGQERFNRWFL

How the values were obtained:
[1] = molecular target: T1, BCL-xL/ABT-737 complex: biotinylated BCL-xL (residues 2-215) in the presence of 1 µM ABT-737 (human, UniProt Q07817 2-215, biotin on the N-terminal AviTag; small molecule ABT-737 bound non-covalently); test: BLI (Octet), biotinylated BCL-xL on streptavidin sensor, Fab as analyte, 1 µM ABT-737, global 1:1 fit
T1 construct: Same protein as m1; not shown: N-terminal tags (pMCSG7 vector tag used for Ni-NTA, AviTag, TEV cut site)

[2] = molecular target: T1, BCL-xL/ABT-737 complex: biotinylated …; test: BLI (Octet)

Binder | Kd [1] [nM] | koff [1] [s⁻¹] | kon [1] [M⁻¹ s⁻¹] | fold selectivity for the ABT-737-bound form of BCL-xL over the apo form [2] [fold]
Fab AZ1 (Fab, Purified Fab from E. coli; The scaffold tags are kept) heavy: EISEVQLVESGGGLVQPGGSLRLSCAASGFNLSYSSMHWVRQAPGKGLEWVASISPYSSYTSYADSVKGRFTISADTSKNTAYLQMNSLRAEDTAVYYCARGWVGMDYWGQGTLVTVSSASTKGPSVFPLAPSSKSTSGGTAALGCLVKDYFPEPVTVSWNSGALTSGVHTFPAVLQSSGLYSLSSVVTVPSSSLGTQTYICNVNHKPSNTKVDKKVEPKSCDKTHTGGSHHHHHH light: SDIQMTQSPSSLSASVGDRVTITCRASQSVSSAVAWYQQKPGKAPKLLIYSASSLYSGVPSRFSGSRSGTDFTLTISSLQPEDFATYYCQQYYWGFPSLFTFGQGTKVEIKRTVAAPSVFIFPPSDSQLKSGTASVVCLLNNFYPREAKVQWKVDNALQSGNSQESVTEQDSKDSTYSLSSTLTLSKADYEKHKVYACEVTHQGLSSPVTKSFNRGECGGSDYKDDDDK | 3 | 0.0004 | 130000 | 
Fab AZ3 (Fab, Purified Fab; graft limits inferred) heavy: EISEVQLVESGGGLVQPGGSLRLSCAASGFNIYYSYMHWVRQAPGKGLEWVASISPYSSYTSYADSVKGRFTISADTSKNTAYLQMNSLRAEDTAVYYCARYGYSYYYYGALDYWGQGTLVTVSSASTKGPSVFPLAPSSKSTSGGTAALGCLVKDYFPEPVTVSWNSGALTSGVHTFPAVLQSSGLYSLSSVVTVPSSSLGTQTYICNVNHKPSNTKVDKKVEPKSCDKTHTGGSHHHHHH light: SDIQMTQSPSSLSASVGDRVTITCRASQSVSSAVAWYQQKPGKAPKLLIYSASSLYSGVPSRFSGSRSGTDFTLTISSLQPEDFATYYCQQGWSGPWLITFGQGTKVEIKRTVAAPSVFIFPPSDSQLKSGTASVVCLLNNFYPREAKVQWKVDNALQSGNSQESVTEQDSKDSTYSLSSTLTLSKADYEKHKVYACEVTHQGLSSPVTKSFNRGECGGSDYKDDDDK | 9.5 | 0.00209 | 220000 | 
Fab AZ2 (Fab, Purified Fab; graft limits inferred) heavy: EISEVQLVESGGGLVQPGGSLRLSCAASGFNIYSYYMHWVRQAPGKGLEWVAYISPYYSYTSYADSVKGRFTISADTSKNTAYLQMNSLRAEDTAVYYCARGYPWYGMDYWGQGTLVTVSSASTKGPSVFPLAPSSKSTSGGTAALGCLVKDYFPEPVTVSWNSGALTSGVHTFPAVLQSSGLYSLSSVVTVPSSSLGTQTYICNVNHKPSNTKVDKKVEPKSCDKTHTGGSHHHHHH light: SDIQMTQSPSSLSASVGDRVTITCRASQSVSSAVAWYQQKPGKAPKLLIYSASSLYSGVPSRFSGSRSGTDFTLTISSLQPEDFATYYCQQVSWAYPYLITFGQGTKVEIKRTVAAPSVFIFPPSDSQLKSGTASVVCLLNNFYPREAKVQWKVDNALQSGNSQESVTEQDSKDSTYSLSSTLTLSKADYEKHKVYACEVTHQGLSSPVTKSFNRGECGGSDYKDDDDK | 2.4 | 0.00026 | 110000 | > 2000
